Test results as given in patent US7964647B2 (Mutual Pharmaceutical Company, Inc., priority 2007, dated 2011).

COc1cc2c(c(OC)c1OC)-c1ccc(OC)c(=O)cc1[C@@H](NC(C)=O)CC2 [Colchicine, (−)-N-[(7S,12aS)-1,2,3,10-tetramethoxy-9-oxo-5,6,7,9-tetrahydrobenzo[a]heptalen-7-yl]-acetamide]
Mean Cmin concentration on Day 25 (0.6 mg b.i.d. steady state): 0.907 ng/mL | Cmin, MEAN (0.6 mg b.i.d. x 10 days, after last dose (Day 25), healthy adults, N = 13): 0.90651 ng/mL
